For the assay, the target named is HDAC6 (Homo sapiens, UniProt Q9UBN7). The assay can be described thus: In vitro deacetylase assay on HDAC6. The settings on record: TSA, same conditions as the mitochondrial lysate assay.

Amino acid sequences for entries named in this document (tags omitted). A change or cut given only in a name is not applied to a line headed by its entry.
UniProt Q9UBN7: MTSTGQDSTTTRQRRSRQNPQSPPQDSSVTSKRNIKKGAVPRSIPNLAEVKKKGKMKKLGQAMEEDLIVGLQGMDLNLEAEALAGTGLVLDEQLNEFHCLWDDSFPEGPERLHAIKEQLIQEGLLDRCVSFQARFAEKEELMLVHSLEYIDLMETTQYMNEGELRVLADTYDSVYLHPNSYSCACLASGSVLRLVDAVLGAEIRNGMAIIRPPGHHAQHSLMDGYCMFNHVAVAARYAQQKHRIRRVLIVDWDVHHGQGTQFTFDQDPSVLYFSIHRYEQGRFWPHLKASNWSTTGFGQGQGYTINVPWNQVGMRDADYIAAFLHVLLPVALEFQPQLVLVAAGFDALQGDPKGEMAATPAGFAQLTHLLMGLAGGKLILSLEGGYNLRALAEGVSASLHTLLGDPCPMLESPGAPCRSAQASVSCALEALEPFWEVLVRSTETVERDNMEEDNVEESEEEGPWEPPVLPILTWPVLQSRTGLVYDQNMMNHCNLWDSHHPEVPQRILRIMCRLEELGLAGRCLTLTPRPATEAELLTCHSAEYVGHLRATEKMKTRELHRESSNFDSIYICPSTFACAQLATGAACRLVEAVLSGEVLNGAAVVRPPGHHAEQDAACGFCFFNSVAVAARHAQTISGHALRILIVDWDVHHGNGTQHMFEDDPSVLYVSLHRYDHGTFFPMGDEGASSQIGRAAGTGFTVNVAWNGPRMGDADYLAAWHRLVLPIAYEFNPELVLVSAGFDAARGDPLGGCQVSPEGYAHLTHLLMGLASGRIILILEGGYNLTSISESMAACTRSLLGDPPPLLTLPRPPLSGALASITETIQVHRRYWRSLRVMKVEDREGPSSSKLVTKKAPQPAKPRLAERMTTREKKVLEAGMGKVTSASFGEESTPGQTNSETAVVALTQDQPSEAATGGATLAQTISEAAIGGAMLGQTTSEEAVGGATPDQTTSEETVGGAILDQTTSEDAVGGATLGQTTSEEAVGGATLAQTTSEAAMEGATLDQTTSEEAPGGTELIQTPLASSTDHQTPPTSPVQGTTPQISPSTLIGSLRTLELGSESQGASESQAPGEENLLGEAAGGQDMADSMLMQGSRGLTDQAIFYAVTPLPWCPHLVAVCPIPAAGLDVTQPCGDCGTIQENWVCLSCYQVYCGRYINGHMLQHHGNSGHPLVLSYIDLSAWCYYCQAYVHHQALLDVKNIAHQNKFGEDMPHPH

trichostatin A: the “effect on activity of the class II HDAC, HDAC6” value is listed as “significant inhibition”.

Values taken from US7273713B2, “Methods of modulating mitochondrial NAD-dependent deacetylase” (The Regents of the University of California, priority 2002, dated 2007).
